# From US6358736B1, “Method for increasing the antigen presenting ability of leukemia cells” (The United States of America as represented by the …, priority 1995, dated 2002)
# Tested on: human peripheral blood monocytes
# Test: FACS analysis of cell surface markers on cultured peripheral blood monocytes
# Type: cell-based
# Conditions: added to calcium ionophore treatment
substance,measurement,value
rhIL-2: recombinant human IL-2,effect of agent on ionophore-induced activated myeloid dendritic cell phenotype,"enhanced CD14 downregulation and upregulation of costimulatory, MHC, and other molecule expression"
